Results: ChEMBL document CHEMBL3352346, “Optimization of sphingosine-1-phosphate-1 receptor agonists: effects of acidic, basic, and zwitterionic chemotypes on pharmacokinetic and pharmacodynamic profiles” (J Med Chem, 2014)

Species on record: Homo sapiens
Test: Selectivity ratio of EC50 for human S1P3R to EC50 for human S1P1R

Ratio EC50: 1000
SMILES: CC(C)Oc1ccc(-c2nc(-c3ccc4c(c3)CCN(CCCC(=O)O)CC4)no2)cc1C#N
